The record followed here is patent publication US20100240720A1, “ALLOSTERIC JNK INHIBITORS” (Burnham Institute for Medical Research, priority 2009, published 2010).

Amino acid sequences for entries named in this document (tags omitted). A change or cut given only in a name is not applied to a line headed by its entry.
UniProt P45983: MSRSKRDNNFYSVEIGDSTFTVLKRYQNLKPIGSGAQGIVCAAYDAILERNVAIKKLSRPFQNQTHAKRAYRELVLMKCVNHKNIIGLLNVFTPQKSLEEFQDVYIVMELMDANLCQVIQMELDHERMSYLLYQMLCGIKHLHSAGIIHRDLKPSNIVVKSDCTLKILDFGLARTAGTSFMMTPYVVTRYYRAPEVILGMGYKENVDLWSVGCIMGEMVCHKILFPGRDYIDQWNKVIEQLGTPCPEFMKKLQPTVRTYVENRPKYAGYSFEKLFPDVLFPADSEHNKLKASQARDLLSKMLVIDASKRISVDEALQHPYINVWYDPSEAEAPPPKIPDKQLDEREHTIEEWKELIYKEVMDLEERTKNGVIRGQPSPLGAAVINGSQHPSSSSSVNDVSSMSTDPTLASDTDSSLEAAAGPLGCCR

The target in this test is JNK kinase (Homo sapiens, UniProt P45983). Put plainly: Lantha Screen Kinase Activity Assay. In kind it is biochemical.

Each structure is given as a SMILES string.

For orientation: IC50 means the concentration that inhibits the measured activity by half. `COc1ccc(C)cc1CC(=O)Nc1sccc1C(N)=O` came in with an IC50 of 2300 nM.
